Assay results: US10227346B2, “Methyl- and trifluoromethyl-substituted pyrrolopyridine modulators of RORC2 and methods of use therof” (Pfizer Inc., priority 2014, dated 2019)

Each molecule was assayed on IL-17 production from human Th17 cells (assay: IL-17 production from human Th17 cells). Conditions: CD4+ T, 144 h.
Type: cell-based
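Also: purified human CD4+ T cells activated with anti-CD3 plus anti-CD28 and a Th17-inducing cytokine cocktail, with compound at serial concentrations versus no compound.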

How did the IC50 turn out when `Cc1c(NC(=O)c2cccc(C#N)c2)cnc2c1c([C@@H]1C[C@H]3CC[C@@H]1CN3C(=O)C1CCCC1)cn2C` (relative stereo) [Example 100, 3-cyano-N-(3-((1R*,4S*,5R*)-2-(cyclopentanecarbonyl)-2-azabicyclo[2.2.2]octan-5-yl)-1,4-dimethyl-1H-pyrrolo[2,3-b]pyridin-5-yl)benzamide] was run?
Its IC50 is 10.4 nM.

Which IC50 does the source give for `COc1ccc(C(=O)Nc2cnc3c(c(C4CCN(C(=O)[C@@H](C)C(F)(F)F)CC4)cn3C)c2C)cc1C#N` (single isomer, unassigned) [Example 44] here?
Its IC50 is 17.1 nM.

How did the IC50 turn out when `COc1ccc(C(=O)Nc2cnc3c(c(C4CCN(C(=O)[C@H](C)C(F)(F)F)CC4)cn3C)c2C)cc1C#N` (single isomer, unassigned) [Example 45] was run?
Its IC50 is 16 nM.

How did the IC50 turn out when `Cc1c(NC(=O)c2cccc(C#N)c2)cnc2c1c(C1CCN(C(=O)[C@@H](C)C(F)(F)F)CC1)cn2C` (single isomer, unassigned) [Example 111] was run?
The IC50 was 24.2 nM.

For `COc1cc(C#N)cc(C(=O)Nc2cnc3c(c(C4CCN(C(=O)C5CCCC5)CC4)cn3C)c2C(F)(F)F)c1` [Example 1, 3-cyano-N-(3-(1-(cyclopentanecarbonyl)piperidin-4-yl)-1-methyl-4-(trifluoromethyl)-1H-pyrrolo[2,3-b]pyridin-5-yl)-5-methoxybenzamide], which IC50 is on record?
Its IC50 is 11.8 nM.

With `Cc1ccc(C(=O)Nc2cnc3c(c(C4CCN(C(=O)C5CCCC5)CC4)cn3C)c2C(F)(F)F)cc1C#N` [Example 2, 3-cyano-N-(3-(1-(cyclopentanecarbonyl)piperidin-4-yl)-1-methyl-4-(trifluoromethyl)-1H-pyrrolo[2,3-b]pyridin-5-yl)-4-methylbenzamide] as the molecule, how does the IC50 read?
The IC50 was 15.2 nM.

With `COc1ccc(C(=O)Nc2cnc3c(c(C4CCN(C(=O)C5CCCC5)CC4)cn3C)c2C(F)(F)F)cc1C#N` [Example 4, 3-cyano-N-(3-(1-(cyclopentanecarbonyl)piperidin-4-yl)-1-methyl-4-(trifluoromethyl)-1H-pyrrolo[2,3-b]pyridin-5-yl)-4-methoxybenzamide] as the molecule, how does the IC50 read?
The IC50 was 3.5 nM.

How did the IC50 turn out when `COc1ccc(C(=O)Nc2cnc3c(c(C4CCN(C(=O)C(C)C)CC4)cn3C)c2C(F)(F)F)cc1C#N` [Example 6, 3-cyano-N-(3-(1-isobutyrylpiperidin-4-yl)-1-methyl-4-(trifluoromethyl)-1H-pyrrolo[2,3-b]pyridin-5-yl)-4-methoxybenzamide] was run?
Its IC50 is 5 nM.

Which IC50 does the source give for `Cc1ccc(C(=O)Nc2cnc3c(c(C4CCN(C(=O)C(C)C)CC4)cn3C)c2C(F)(F)F)cc1C#N` [Example 7, 3-cyano-N-(3-(1-isobutyrylpiperidin-4-yl)-1-methyl-4-(trifluoromethyl)-1H-pyrrolo[2,3-b]pyridin-5-yl)-4-methylbenzamide] here?
Its IC50 is 6.2 nM.

Which IC50 does the source give for `COc1cc(C#N)cc(C(=O)Nc2cnc3c(c(C4CCN(C(=O)C(C)C)CC4)cn3C)c2C(F)(F)F)c1` [Example 8, 3-cyano-N-(3-(1-isobutyrylpiperidin-4-yl)-1-methyl-4-(trifluoromethyl)-1H-pyrrolo[2,3-b]pyridin-5-yl)-5-methoxybenzamide] here?
Its IC50 is 14.4 nM.

How did the IC50 turn out when `Cn1cc(C2CCN(C(=O)CC3CCCC3)CC2)c2c(C(F)(F)F)c(NC(=O)c3cccc(C#N)c3)cnc21` [Example 14, 3-cyano-N-(3-(1-(2-cyclopentylacetyl)piperidin-4-yl)-1-methyl-4-(trifluoromethyl)-1H-pyrrolo[2,3-b]pyridin-5-yl)benzamide] was run?
Its IC50 is 8.7 nM.

With `CC(C)CC(=O)N1CCC(c2cn(C)c3ncc(NC(=O)c4cccc(C#N)c4)c(C(F)(F)F)c23)CC1` [Example 15, 3-cyano-N-(1-methyl-3-(1-(3-methylbutanoyl)piperidin-4-yl)-4-(trifluoromethyl)-1H-pyrrolo[2,3-b]pyridin-5-yl)benzamide] as the molecule, how does the IC50 read?
Its IC50 is 9.9 nM.

With `CC(C)C(C)(C)CC(=O)N1CCC(c2cn(C)c3ncc(NC(=O)c4cccc(C#N)c4)c(C(F)(F)F)c23)CC1` [Example 17, 3-cyano-N-(1-methyl-4-(trifluoromethyl)-3-(1-(3,3,4-trimethylpentanoyl)piperidin-4-yl)-1H-pyrrolo[2,3-b]pyridin-5-yl)benzamide] as the molecule, how does the IC50 read?
The IC50 was 10.7 nM.

How did the IC50 turn out when `Cn1cc(C2CCN(C(=O)C3CCCCC3)CC2)c2c(C(F)(F)F)c(NC(=O)c3cccc(C#N)c3)cnc21` [Example 19, 3-cyano-N-(3-(1-(cyclohexanecarbonyl)piperidin-4-yl)-1-methyl-4-(trifluoromethyl)-1H-pyrrolo[2,3-b]pyridin-5-yl)benzamide] was run?
The IC50 was 12.6 nM.

`C[C@@H](C(=O)N1CCC(c2cn(C)c3ncc(NC(=O)c4cccc(C#N)c4)c(C(F)(F)F)c23)CC1)C(C)(C)C` [Example 21, (R)-3-cyano-N-(1-methyl-4-(trifluoromethyl)-3-(1-(2,3,3-trimethylbutanoyl)piperidin-4-yl)-1H-pyrrolo[2,3-b]pyridin-5-yl)benzamide] was tested. Which IC50 did it give?
Its IC50 is 3.4 nM.

With `C[C@H](C(=O)N1CCC(c2cn(C)c3ncc(NC(=O)c4cccc(C#N)c4)c(C(F)(F)F)c23)CC1)C(C)(C)C` [Example 22, (S)-3-cyano-N-(1-methyl-4-(trifluoromethyl)-3-(1-(2,3,3-trimethylbutanoyl)piperidin-4-yl)-1H-pyrrolo[2,3-b]pyridin-5-yl)benzamide] as the molecule, how does the IC50 read?
Its IC50 is 5.9 nM.

With `COc1ccc(C(=O)Nc2cnc3c(c(C4CCN(C(=O)[C@H](C)C(C)(C)C)CC4)cn3C)c2C(F)(F)F)cc1C#N` [Example 30, (R)-3-cyano-4-methoxy-N-(1-methyl-4-(trifluoromethyl)-3-(1-(2,3,3-trimethylbutanoyl)piperidin-4-yl)-1H-pyrrolo[2,3-b]pyridin-5-yl)benzamide] as the molecule, how does the IC50 read?
Its IC50 is 3.9 nM.

For `COc1ccc(C(=O)Nc2cnc3c(c(C4CCN(C(=O)[C@@H](C)C(C)(C)C)CC4)cn3C)c2C(F)(F)F)cc1C#N` [Example 31, (S)-3-cyano-4-methoxy-N-(1-methyl-4-(trifluoromethyl)-3-(1-(2,3,3-trimethylbutanoyl)piperidin-4-yl)-1H-pyrrolo[2,3-b]pyridin-5-yl)benzamide], which IC50 is on record?
The IC50 was 4.7 nM.

With `Cc1c(NC(=O)c2cccc(C#N)c2)cnc2c1c(C1CCN(C(=O)[C@H](C)C(C)(C)C)CC1)cn2C` [Example 32, (R)-3-cyano-N-(1,4-dimethyl-3-(1-(2,3,3-trimethylbutanoyl)piperidin-4-yl)-1H-pyrrolo[2,3-b]pyridin-5-yl)benzamide] as the molecule, how does the IC50 read?
The IC50 was 3.4 nM.

With `Cc1c(NC(=O)c2cccc(C#N)c2)cnc2c1c(C1CCN(C(=O)[C@H]3C[C@H]4CC[C@@H]3C4)CC1)cn2C` [Example 35, N-(3-(1-((1R,2S,4S)-bicyclo[2.2.1]heptane-2-carbonyl)piperidin-4-yl)-1,4-dimethyl-1H-pyrrolo[2,3-b]pyridin-5-yl)-3-cyanobenzamide] as the molecule, how does the IC50 read?
The IC50 was 14.3 nM.

How did the IC50 turn out when `Cc1c(NC(=O)c2cccc(C#N)c2)cnc2c1c(C1CCN(C(=O)[C@@H]3C[C@@H]4CC[C@H]3C4)CC1)cn2C` [Example 36, N-(3-(1-((1S,2R,4R)-bicyclo[2.2.1]heptane-2-carbonyl)piperidin-4-yl)-1,4-dimethyl-1H-pyrrolo[2,3-b]pyridin-5-yl)-3-cyanobenzamide] was run?
The IC50 was 6.6 nM.

`COc1ccc(C(=O)Nc2cnc3c(c(C4CCN(C(=O)[C@H](C)C(C)(C)C)CC4)cn3C)c2C)cc1C#N` [Example 38, (R)-3-cyano-N-(1,4-dimethyl-3-(1-(2,3,3-trimethylbutanoyl)piperidin-4-yl)-1H-pyrrolo[2,3-b]pyridin-5-yl)-4-methoxybenzamide] was tested. Which IC50 did it give?
The IC50 was 11 nM.
